Laboratory results as given in patent publication US20260000782A1, “ITGB2-MEDIATED DRUG DELIVERY SYSTEM” (TWINPIG BIOLAB INC., priority 2022, published 2026).

How the values were obtained:
M2 macrophages [1] = test: Caspase expression in M2 macrophages (Western blot, Real-time PCR, immunofluorescence); format: cell-based, human; conditions: TB511 1 μM
Procedure: To confirm whether TB511 induced apoptosis through ITGB2 in M2 macrophages, the M2 macrophages with suppressed ITGB2 expression fabricated in Example 7-1 above were pretreated with an anti-ITGB2 antibody (Polyclonal Rabbit anti-Human ITGB2/CD18 antibody) (LS-C312785; LS Bio) (1 μg) for 1 hour, and then reacted with TB511 (1 μM) for 1 hour. Thereafter, the induction of apoptosis was confirmed by cell viability analysis using the CCK-8 assay, protein expression of caspase-3, an apoptosis marker, was confirmed by Western blot analysis, gene expression of caspase-3, caspase-8, and caspase-9 was confirmed by Real-time PCR, and induction of protein expression of caspase-3 was confirmed by immunofluorescence.

[2] = test system: A549 human lung cancer cells, CAFs, and THP-1 cells; test: Lung cancer 3D organoids (spheroids); format: cell-based
Description: (§1) To complement the limitations in vitro and replace in vivo, a 3D organoid mimicking a tumor microenvironment (TME) of breast cancer was fabricated and an effect of TB511 thereon was confirmed. Specifically, an RPMI-1640 culture medium was mixed to contain 3% Matrigel, and THP-1 cells fabricated to express GFP using MDA-MB-231 human breast cancer cells, Cancer-associated Fibroblast (CAF), and Incucyte®Nuclight Lentivirus Reagents (Sartorius) were counted and dispensed into a 96 u-bottom 3-D culture plate (Sbio) at a ratio of 5:1:1 to be 200 μl. After culturing, the cells were collected by centrifugation at 1200 rpm for 3 minutes and then cultured in a 37° C. incubator for 48 hours to form spheroids. From day 2 of spheroid formation, TB511 was treated every three days at concentrations of 1 μM, 2 μM, 4 μM, and 8 μM, and images were taken using a fluorescence microscope. After taking bright-field images, the spheroid area was measured using a method for measuring a Ferret diameter. In addition, the average tumor spheroid diameter was measured using an open source, and the average diameter of three spheroids was analyzed with ImageJ (software version 1.47 m). The spheroid size was analyzed by taking bright-field images (20×), and then measuring the average tumor spheroid diameter of three spheroids with ImageJ (software version 1.47 m). Additionally, on day 10 of drug treatment, immunofluorescent staining was performed by fixing spheroids and reacting with an antibody (abcam) against ki-67, a tumor proliferation factor (control staining: DAPI). For THP-1, images of GFP fluorescence expressed within the cells were taken using a confocal microscope without performing separate staining, and the number of cells expressing fluorescence was measured.
Lung cancer 3D spheroids were fabricated by mixing A549 human lung cancer cells, CAFs, and THP-1 cells using the method of Example 8-1 above, and then treated with TB511 at concentrations of 1 μM, 2 μM, and 4 μM, respectively, and the effects thereof were analyzed as in Example 8-1 above. […]

[3] = test system: Carboplatin-resistant A549 cells, CAFs, and THP-1 cells; test: Anticancer drug-resistant lung cancer 3D organoids (spheroids); format: cell-based, human; conditions: TB511 1, 2, 4 μM; day 10 after drug treatment; immunofluorescence
Description: as §1, with “After culturing, the cells were collected by centrifugation at 1200 rpm for 3 minutes and then cultured in a 37° C. incubator for 48 hours to form spheroids.” left out, “Additionally, on day 10 of drug treatment, immunofluorescent staining was performed by fixing spheroids and reacting with an antibody (abcam) against ki-67, a tumor proliferation factor (control staining: DAPI).” left out, “measured. […]” for “measured.”

M2 macrophages [4] = test: Mitochondrial targeting of TB511 in M2 macrophages; format: cell-based, human; conditions: M2 macrophages pretreated with ITGB2 antibody versus not pretreated
Description: In addition, in M2 macrophages, the caspase-3 expression was increased by TB511, whereas in M2 macrophages pretreated with the ITGB2 antibody, the caspase-3 expression was decreased by TB511 (FIG. 21). Additionally, as a result of confirming the mitochondrial targeting of TB511, in the M2 macrophages pretreated with ITGB2 antibody, co-localization of the mitochondria and TB511 was decreased compared to cells not pretreated with ITGB2 (FIG. 21).

[5] = test system: Docetaxel-resistant PC3 prostate cancer cells, CAFs, and THP-1 cells; test: Anticancer drug-resistant prostate cancer 3D organoids (spheroids); format: cell-based; conditions: TB511 1, 2, 4 μM; day 10 after drug treatment; immunofluorescence
Description: as §1, with “After culturing, the cells were collected by centrifugation at 1200 rpm for 3 minutes and then cultured in a 37° C. incubator for 48 hours to form spheroids.” left out, “Additionally, on day 10 of drug treatment, immunofluorescent staining was performed by fixing spheroids and reacting with an antibody (abcam) against ki-67, a tumor proliferation factor (control staining: DAPI).” left out, “measured. […]” for “measured.”

[6] = test system: MDA-MB-231 human breast cancer cells, CAFs and THP-1 cells; test: Breast cancer 3D organoids (spheroids); format: cell-based; conditions: day 10
Description: as §1, with “After culturing, the cells were collected by centrifugation at 1200 rpm for 3 minutes and then cultured in a 37° C. incubator for 48 hours to form spheroids.” left out, “Additionally, on day 10 of drug treatment, immunofluorescent staining was performed by fixing spheroids and reacting with an antibody (abcam) against ki-67, a tumor proliferation factor (control staining: DAPI).” left out, “measured. […]” for “measured.”

M2 macrophages [7] = test: CCK-8 cell viability in M2 macrophages (control, ITGB2 knockdown, ITGB2 antibody pretreatment); format: cell-based, human
Procedure: As a cell model used to confirm whether apoptosis was induced through ITGB2 in M2 macrophages, a cell model in which the expression of ITGB2 was suppressed in M2 macrophages was fabricated using Crispr/cas9. Specifically, cells differentiated into M2 macrophages were cultured in an Opti-MEM medium. The Crispr/cas9 was mixed with Cas9 protein V2 (Thermo Fisher scientific) and gRNA (Genscript; ITGB2; Table 7) of a CRISPRMAX™ Reagent kit (Thermo Fisher scientific) and a Cas9 Plus™ Reagent (Thermo Fisher scientific), and a CRISPRMAX™ Reagent was diluted in the Opti-MEM medium, mixed together, and reacted for 5 to 10 minutes, and then added to cells differentiated into M2 macrophages and cultured at 37° C. for 2 to 3 days. Thereafter, the mRNA expression level of ITGB2 was confirmed.
To confirm whether Melittin-dKLA bound to ITGB2 to induce apoptosis in M2 macrophages, Melittin-dKLA (1 μM) was treated for 24 hours to M2 macrophages in which ITGB2 expression was suppressed by Crispr/cas9 fabricated in Example 7-1 above, and cell viability was analyzed using a CCK-8 assay. Specifically, Melittin-dKLA (1 μM) reacted with ITGB2 knockdown macrophages fabricated in Example 7-1 above for 1 hour. After the reaction, the medium was replaced and cultured at 37° C. for 24 hours. To determine cell viability, a CCK-8 reagent (Enzo Life Sciences) was added in 1/10 of the medium and reacted at 37° C. for 3 hours. Absorbance was measured at 450 nm using a microplate reader (Molecular Devices).
To confirm whether TB511 (TAMpep826-dKLA) induced apoptosis through ITGB2 in M2 macrophages, TB511 reacted with M2 macrophages in which ITGB2 expression was suppressed by Crispr/cas9 fabricated in Example 7-1 above.
To confirm whether TB511 induced apoptosis through ITGB2 in M2 macrophages, the M2 macrophages with suppressed ITGB2 expression fabricated in Example 7-1 above were pretreated with an anti-ITGB2 antibody (Polyclonal Rabbit anti-Human ITGB2/CD18 antibody) (LS-C312785; LS Bio) (1 μg) for 1 hour, and then reacted with TB511 (1 μM) for 1 hour. […]

[8] = M2 macrophages pretreated with the ITGB2 antibody
[9] = TB511 1, 2, 4 μM, day 10 after drug treatment, fluorescent staining

With CC[C@H](C)[C@H](NC(=O)[C@H](CC(C)C)NC(=O)[C@H](C)NC(=O)[C@@H]1CCCN1C(=O)[C@H](CC(C)C)NC(=O)CNC(=O)[C@@H](NC(=O)[C@@H](NC(=O)[C@H](CC(C)C)NC(=O)[C@@H](N)C(C)C)[C@@H](C)O)[C@@H](C)O)C(=O)N[C@@H](CO)C(=O)N[C@@H](Cc1c[nH]c2ccccc12)C(=O)N[C@H](C(=O)N[C@@H](CCCCN)C(=O)N[C@@H](CCCNC(=N)N)C(=O)N[C@@H](CCCCN)C(=O)N[C@@H](CCCNC(=N)N)C(=O)N[C@@H](CCC(N)=O)C(=O)N[C@@H](CCC(N)=O)C(=O)NCC(=O)NCC(=O)NCC(=O)NCC(=O)N[C@@H](CO)C(=O)N[C@H](CCCCN)C(=O)N[C@H](CC(C)C)C(=O)N[C@H](C)C(=O)N[C@H](CCCCN)C(=O)N[C@H](CC(C)C)C(=O)N[C@H](C)C(=O)N[C@H](CCCCN)C(=O)N[C@H](CCCCN)C(=O)N[C@H](CC(C)C)C(=O)N[C@H](C)C(=O)N[C@H](CCCCN)C(=O)N[C@H](CC(C)C)C(=O)N[C@H](C)C(=O)N[C@H](CCCCN)C(=O)O)[C@@H](C)CC [TB511] the “caspase-3 expression (immunofluorescence)” value (M2 macrophages [1]; [8]) was “decreased”, the “caspase-3 expression (protein, Western blot)” value (M2 macrophages [1]; [8]) was “significantly decreased” and the “expression of caspase-3, caspase-8, and caspase-9 (gene, Real-time PCR)” value (M2 macrophages [1]; [8]) was “significantly decreased”. The “caspase-3 expression (immunofluorescence)” value (M2 macrophages [1]; M2 macrophages) was “increased”, the “caspase-3 expression (protein, Western blot)” value (M2 macrophages [1]; M2 macrophages) was “significantly increased” and the “expression of caspase-3, caspase-8, and caspase-9 (gene, Real-time PCR)” value (M2 macrophages [1]; M2 macrophages) was “significantly increased”. The size of spheroids ([2]; 1, 2, 4 μM, versus untreated) was “significantly reduced in a concentration-dependent manner”, the “number of THP-1 cells” value [2, 9] was “significantly decreased in a concentration-dependent manner” and the “tumor proliferation factor ki-67” value [2, 9] was “decreased in a concentration-dependent manner”. For the same compound, the “number of THP-1 cells” value [3] was “significantly decreased in a concentration-dependent manner”, the “tumor proliferation factor ki-67” value [3] was “significantly decreased from 2 μM” and the “co-localization of the mitochondria and TB511” value (M2 macrophages [4]) was “decreased”. The “number of THP-1 cells” value [5] was “significantly decreased in a concentration-dependent manner”, the “tumor proliferation factor ki-67” value [5] was “tended to be reduced” and the size of spheroids ([6]; TB511 1, 2, 4, 8 μM every three days, versus untreated) was “decreased in a concentration-dependent manner from a concentration of 1 μM”. The “number of THP-1 cells expressing GFP fluorescence” value ([6]; TB511 1, 2, 4, 8 μM, versus drug-untreated group) was “significantly decreased in a concentration-dependent manner”, the cell viability (M2 macrophages [7]; M2 macrophages pretreated with the ITGB2 antibody (1 μg, 1 hour), then TB511 1 μM 1 hour, CCK-8) was “significantly increased” and the cell viability (M2 macrophages [7]; M2 macrophages, ITGB2 antibody 1 μg 1 hour or TB511 1 μM 1 hour, CCK-8) was “significantly reduced”. The cell viability (M2 macrophages [7]; cells where ITGB2 expression was suppressed (Crispr/cas9), TB511, versus M2 macrophages) was “significantly increased”.
